Values quoted from earlier work in article PMC7890489, “Study on pharmacological properties and cell absorption metabolism of novel daidzein napsylates” (Royal Society Open Science, 2021).

Settings: cited from earlier work

sodium daidzein sulphonate
solubility in water: easily soluble in water
